# Measurements as given in ChEMBL document CHEMBL1125885, “Dopamine autoreceptor agonists as potential antipsychotics. 3.6-Propyl-4,5,5a,6,7,8-hexahydrothiazolo[4,5-f]quinolin-2-amine” (J Med Chem, 1991).
# Test: It is the ratio of ED50 for stimulation of locomotor activity to that of inhibition of locomotor activity
# Assay type: functional
row,SMILES,Ratio
1,CCCN1CCC=C2c3nc(N)sc3CC[C@@H]21 (stereo in doubt; (-)-6),> 12
2,CCCN1CCC=C2c3nc(N)sc3CC[C@@H]21 (stereo in doubt; (+)-6),22.6
3,CCCN1CCC=C2c3nc(N)sc3CCC21 (racemic),16.1
